Reference: patent EP1323421A1 (priority 2001, dated 2003)
Marks after values point to notes of the source that are not given here.

System: wake naive rats
Experiment: cystometry with wake naive rats
Conditions: 0.01 mg/kg iv (n=6)

CO[C@]12CC[C@@]3(C[C@@H]1[C@](C)(O)C(C)(C)C)[C@H]1Cc4ccc(O)c5c4[C@@]3(CCN1CC1CC1)[C@H]2O5 [buprenorphine, 21-cyclopropyl-7.varies.-[(S)-1-hydroxy-1,2,2-trimethylpropyl]-6,14-endo-e thano-6,7,8,14-tetrahydrooripavine]
BC bladder capacity, change compared to the pre-basis: +3.6%
ICI inter-contraction interval, change compared to the pre-basis: +10.9%
TP threshold pressure, change compared to the pre-basis: +69.9% **
